Here are results for 18 compounds from patent US9751885B2, “Cyclopropanamine compound and use thereof” (Takeda Pharmaceutical Company Limited, priority 2012, dated 2017).

By UniProt entry, the sequences of proteins in these tests, tags left out.
UniProt P21397, whole entry: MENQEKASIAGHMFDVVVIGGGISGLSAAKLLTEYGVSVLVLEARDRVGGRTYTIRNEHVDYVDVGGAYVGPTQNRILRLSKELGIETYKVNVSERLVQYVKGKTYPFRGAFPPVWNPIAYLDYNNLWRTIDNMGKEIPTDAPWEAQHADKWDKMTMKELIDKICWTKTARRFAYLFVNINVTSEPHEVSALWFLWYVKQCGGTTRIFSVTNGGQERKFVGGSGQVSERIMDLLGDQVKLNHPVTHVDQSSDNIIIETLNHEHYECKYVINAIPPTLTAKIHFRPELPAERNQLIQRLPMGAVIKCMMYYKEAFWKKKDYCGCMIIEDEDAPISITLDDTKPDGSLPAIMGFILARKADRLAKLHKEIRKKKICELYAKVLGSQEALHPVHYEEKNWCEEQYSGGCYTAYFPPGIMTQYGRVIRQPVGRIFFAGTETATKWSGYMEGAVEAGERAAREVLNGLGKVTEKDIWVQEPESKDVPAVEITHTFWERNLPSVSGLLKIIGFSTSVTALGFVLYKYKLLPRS
UniProt P27338, whole entry: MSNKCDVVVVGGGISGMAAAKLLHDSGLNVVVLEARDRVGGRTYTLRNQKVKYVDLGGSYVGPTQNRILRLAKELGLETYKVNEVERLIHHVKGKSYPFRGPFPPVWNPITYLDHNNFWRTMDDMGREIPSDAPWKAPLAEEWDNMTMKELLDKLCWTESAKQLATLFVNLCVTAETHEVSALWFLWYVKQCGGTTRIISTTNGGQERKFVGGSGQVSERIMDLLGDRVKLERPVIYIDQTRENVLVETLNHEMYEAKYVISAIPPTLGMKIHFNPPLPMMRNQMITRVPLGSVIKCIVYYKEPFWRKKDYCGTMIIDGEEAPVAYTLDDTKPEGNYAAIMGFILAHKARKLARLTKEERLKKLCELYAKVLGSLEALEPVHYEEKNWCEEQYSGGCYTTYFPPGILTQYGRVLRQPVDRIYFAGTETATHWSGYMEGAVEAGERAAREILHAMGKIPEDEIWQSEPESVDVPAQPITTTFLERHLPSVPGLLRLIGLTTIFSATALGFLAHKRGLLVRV

In one test the target is MAO-A enzyme (Homo sapiens (Human), UniProt P21397). Briefly: Measurement of MAO-A inhibitory activity (MAO-Glo Assay). The format is biochemical.
The next test addresses MAO-B enzyme (Homo sapiens (Human), UniProt P27338). The test is described as follows: Measurement of MAO-B inhibitory activity (MAO-Glo Assay).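 Also: luminescence read-out, compound preincubated 10 min with enzyme then reacted 60 min at room temperature, inhibition relative to enzyme reaction without compound, blank lacking enzyme and compound.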 As to conditions: read-out: MAO-B IC50 value.

Counter-ions that a name gives are not always drawn.

What is called IC50 is the concentration needed to halve the response being measured. `CC(C)(C)n1cc(NC(=O)c2cccc([C@@H]3C[C@H]3NC3CCOCC3)c2)cn1` (relative stereo) [Example 194, N-(1-tert-butyl-1H-pyrazol-4-yl)-3-(trans-2-(tetrahydro-2H-pyran-4-ylamino)cyclopropyl)benzamide dihydrochloride]: the concentration for half-maximal inhibition (IC50) against MAO-A enzyme and at MAO-B enzyme was greater than 10 µM each time.
Regarding `Cc1nn(C)cc1NC(=O)c1cccc([C@@H]2C[C@H]2NCC(C)(C)C)c1` (relative stereo) [Example 157, 3-(trans-2-((2,2-dimethylpropyl)amino)cyclopropyl)-N-(1,3-dimethyl-1H-pyrazol-4-yl)benzamide dihydrochloride], the half-maximal inhibitory concentration (IC50) against MAO-A enzyme and at MAO-B enzyme was greater than 10 µM each time.
For the compound `O=C(Nc1ccc(N2CCOCC2)nc1)c1cccc([C@@H]2C[C@H]2NCC2CC2)c1` (relative stereo) [Example 134, 3-(trans-2-((cyclopropylmethyl)amino)cyclopropyl)-N-(6-(morpholin-4-yl)pyridin-3-yl)benzamide tris(trifluoroacetate)], the half-maximal inhibitory concentration (IC50) against MAO-A enzyme and at MAO-B enzyme was greater than 10 µM each time.
On to `N[C@@H]1C[C@H]1c1cccc(C(=O)Nc2cnn(CC3CC3)c2)c1` (relative stereo) [Example 63, 3-(trans-2-aminocyclopropyl)-N-(1-(cyclopropylmethyl)-1H-pyrazol-4-yl)benzamide dihydrochloride], for which the IC50 on MAO-A enzyme and at MAO-B enzyme was greater than 10 µM throughout.
On to `COc1ccc([C@@H]2C[C@H]2NCC2CC2)cc1C(=O)Nc1cnn(C)c1` (relative stereo) [Example 94, 5-(trans-2-((cyclopropylmethyl)amino)cyclopropyl)-2-methoxy-N-(1-methyl-1H-pyrazol-4-yl)benzamide dihydrochloride], for which the IC50 on MAO-A enzyme and on MAO-B enzyme was greater than 10 µM throughout.
With `COc1cc(OC)nc(-c2ccc(NC(=O)c3cccc([C@@H]4C[C@H]4NCC4CC4)c3)cc2)n1` (relative stereo) [Example 128, 3-(trans-2-((cyclopropylmethyl)amino)cyclopropyl)-N-(4-(4,6-dimethoxypyrimidin-2-yl)phenyl)benzamide trifluoroacetate], the IC50 against MAO-A enzyme and on MAO-B enzyme was greater than 10 µM each time.
Regarding `N[C@@H]1C[C@H]1c1cccc(C(=O)Nc2cccc(-c3ncccn3)c2)c1` (relative stereo) [Example 69, 3-(trans-2-aminocyclopropyl)-N-(3-(pyrimidin-2-yl)phenyl)benzamide dihydrochloride], the concentration for half-maximal inhibition (IC50) was found to be 6 µM against MAO-A enzyme and 2.7 µM on MAO-B enzyme.
`NC1CC1c1cccc(C(=O)NC2CCCC2)c1` (stereo not drawn) [Example 247, 3-(trans-2-aminocyclopropyl)-N-cyclopentylbenzamide hydrochloride [optical isomer, compound derived from methyl 3-(trans-2-((tert-butoxycarbonyl)amino)cyclopropyl)benzoate (optical isomer, retention time long)]]: the IC50 against MAO-A enzyme and at MAO-B enzyme was greater than 10 µM each time.
Take `O=C(NC1CCCC1)c1cccc([C@@H]2C[C@H]2NCC2CC2)c1` (relative stereo) [Example 60, N-cyclopentyl-3-(trans-2-((cyclopropylmethyl)amino)cyclopropyl)benzamide hydrochloride]: the half-maximal inhibitory concentration (IC50) at MAO-A enzyme and on MAO-B enzyme was greater than 10 µM each time.
As to `O=C(Nc1cccc(-c2nnc3n2CCCCC3)c1)c1cccc([C@@H]2C[C@H]2NCC2CC2)c1` (relative stereo) [Example 133, 3-(trans-2-((cyclopropylmethyl)amino)cyclopropyl)-N-(3-(6,7,8,9-tetrahydro-5H-[1,2,4]triazolo[4,3-a]azepin-3-yl)phenyl)benzamide trifluoroacetate], the IC50 against MAO-A enzyme and at MAO-B enzyme was greater than 10 µM each time.
On to `CC(C)(C)n1cc(NC(=O)c2cccc([C@@H]3C[C@H]3NCC3CC3)c2)cn1` (relative stereo) [Example 78, N-(1-tert-butyl-1H-pyrazol-4-yl)-3-(trans-2-((cyclopropylmethyl)amino)cyclopropyl)benzamide dihydrochloride], for which the IC50 at MAO-A enzyme and at MAO-B enzyme was greater than 10 µM each time.
Regarding `O=C(NC1CCCCNC1=O)c1cccc(C2CC2NCC2CC2)c1` (stereo not drawn) [Example 117, 3-(trans-2-((cyclopropylmethyl)amino)cyclopropyl)-N-(2-oxoazepan-3-yl) benzamide trifluoroacetate], the IC50 at MAO-A enzyme and at MAO-B enzyme was greater than 10 µM in each case.
In the case of `Cc1ccc(C(=O)Nc2cnn(C)c2)cc1[C@@H]1C[C@H]1NC1CCC1` (relative stereo) [Example 238, 3-(trans-2-(cyclobutylamino)cyclopropyl)-4-methyl-N-(1-methyl-1H-pyrazol-4-yl)benzamide hydrochloride], the concentration for half-maximal inhibition (IC50) against MAO-A enzyme and at MAO-B enzyme was greater than 10 µM throughout.
Regarding `Cn1cc(NC(=O)c2cc([C@@H]3C[C@H]3NC3CCC3)ccc2F)cn1` (relative stereo) [Example 225, 5-(trans-2-(cyclobutylamino)cyclopropyl)-2-fluoro-N-(1-methyl-1H-pyrazol-4-yl)benzamide dihydrochloride], the 50% inhibitory concentration (IC50) against MAO-A enzyme and on MAO-B enzyme was greater than 10 µM each time.
With `N[C@@H]1C[C@H]1c1cccc(C(=O)Nc2ccc(F)cc2)c1` (relative stereo) [Example 72, 3-(trans-2-aminocyclopropyl)-N-(4-fluorophenyl)benzamide hydrochloride], the IC50 was greater than 10 µM against MAO-A enzyme and 5.7 µM at MAO-B enzyme.
`N[C@@H]1C[C@H]1c1ccc(C(=O)Nc2cn[nH]c2)cc1` (relative stereo) [Example 5, 4-(trans-2-aminocyclopropyl)-N-(1H-pyrazol-4-yl)benzamide dihydrochloride]: the IC50 is 2.9 µM against MAO-A enzyme and greater than 10 µM at MAO-B enzyme.
For `CN(C(=O)c1cccc([C@@H]2C[C@H]2N)c1)c1ccccc1` (relative stereo) [Example 68, 3-(trans-2-aminocyclopropyl)-N-methyl-N-phenylbenzamide hydrochloride] the same measures were 0.49 µM and 6.1 µM.
As to `N[C@@H]1C[C@H]1c1cccc(C(=O)NCc2ccccc2)c1` (relative stereo) [Example 12, 3-(trans-2-aminocyclopropyl)-N-benzylbenzamide hydrochloride], the figures for the IC50 at MAO-A enzyme and at MAO-B enzyme were 4 µM and greater than 10 µM, respectively.
